Legend:
[1] = target: Nociceptin receptor (Homo sapiens) (UniProt P41146); experiment: Stimulation of [35S]GTP-gamma-S, binding to human NOP receptor in cell membrane
[2] = target: Kappa-type opioid receptor (Homo sapiens) (UniProt P41145); experiment: Stimulation of [35S]GTP-gamma-S, binding to human opioid receptor kappa 1 in cell membrane

Chains of the proteins cited; added tags and fusions are not shown. Lines headed by an entry give the natural chain unless they say otherwise; changes in a name come on top.
UniProt P41146: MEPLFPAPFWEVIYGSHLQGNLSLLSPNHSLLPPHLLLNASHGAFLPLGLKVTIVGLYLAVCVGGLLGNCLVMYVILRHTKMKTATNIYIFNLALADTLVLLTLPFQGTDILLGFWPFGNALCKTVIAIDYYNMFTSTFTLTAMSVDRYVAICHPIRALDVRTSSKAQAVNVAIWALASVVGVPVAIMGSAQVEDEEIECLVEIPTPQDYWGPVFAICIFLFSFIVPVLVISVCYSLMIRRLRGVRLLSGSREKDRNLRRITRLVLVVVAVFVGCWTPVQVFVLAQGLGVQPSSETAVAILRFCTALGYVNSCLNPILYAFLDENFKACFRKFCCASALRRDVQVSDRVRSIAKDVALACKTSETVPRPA
UniProt P41145: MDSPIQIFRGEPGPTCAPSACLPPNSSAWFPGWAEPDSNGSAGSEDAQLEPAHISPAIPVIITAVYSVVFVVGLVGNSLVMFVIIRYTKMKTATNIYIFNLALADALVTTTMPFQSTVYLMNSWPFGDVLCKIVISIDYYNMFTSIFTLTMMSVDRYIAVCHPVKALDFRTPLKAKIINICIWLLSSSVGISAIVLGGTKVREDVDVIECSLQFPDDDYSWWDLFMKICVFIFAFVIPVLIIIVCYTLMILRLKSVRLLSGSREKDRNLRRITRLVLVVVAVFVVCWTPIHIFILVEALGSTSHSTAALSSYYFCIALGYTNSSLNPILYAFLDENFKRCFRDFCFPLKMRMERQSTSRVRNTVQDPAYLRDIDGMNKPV

With `Oc1nc2ccccc2n1[C@@H]1CCN2[C@H](CCC[C@H]2C2CCCCC2)C1` the Stimulation [1] was 51% and the Stimulation [2] was 43%.

From ChEMBL document CHEMBL1146689, “The design and synthesis of a novel quinolizidine template for potent opioid and opioid receptor-like (ORL1, NOP) receptor ligands” (2004)
